Test results reported in patent US20230218559A1, “Compositions and Methods for Treating Aging and Age-Related Diseases and Symptoms” (The Regents of the University of California, priority 2014, published 2023).

The chains behind the UniProt entries cited, without tags or fusion partners. Where a name states a change or a piece, a line headed by the entry shows the natural chain unless it says otherwise.
UniProt Q9GZT9: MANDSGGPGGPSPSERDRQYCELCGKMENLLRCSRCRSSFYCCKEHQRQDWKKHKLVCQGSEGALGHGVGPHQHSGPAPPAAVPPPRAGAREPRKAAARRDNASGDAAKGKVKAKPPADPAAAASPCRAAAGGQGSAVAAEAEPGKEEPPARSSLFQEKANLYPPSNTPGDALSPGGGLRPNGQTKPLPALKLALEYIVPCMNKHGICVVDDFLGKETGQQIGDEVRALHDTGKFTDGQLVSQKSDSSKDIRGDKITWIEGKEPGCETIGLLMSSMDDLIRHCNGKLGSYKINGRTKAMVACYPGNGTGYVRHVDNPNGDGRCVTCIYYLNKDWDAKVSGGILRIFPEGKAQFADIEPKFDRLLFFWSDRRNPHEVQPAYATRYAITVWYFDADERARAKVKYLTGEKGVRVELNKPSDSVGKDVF

Molecular target: T1, PHD-2/Eglnl (Homo sapiens, UniProt Q9GZT9)
T1 construct: HeLa cells were lysed in M-PER buffer; endogenous in cells; host or cells: HeLa
Experiment: DARTS for PHD-2 in HeLa lysate
Format: binding

## O=C(O)CCC(=O)C(=O)O [α-KG, α-ketoglutarate]
  binding to PHD-2 by DARTS: confirmed
